This assay has as its system MDA-MB-231 triple negative breast cancer xenograft model. Put plainly: MM-121 combination with targeted and chemotherapies in vivo (Example 5). Conditions: MM121 300 ug/mouse Q3D, erlotinib 50 mg/kg PO, cetuximab 2 mg/kg Q3D, paclitaxel 10 mg/kg.

On to “cetuximab: anti-EGFR antibody, commercially available from ImClone Systems Incorporated”, for which the mean tumor volumes was found to be 172.4 mm^3 (Day 28); 210.6 mm^3 (Day 32); 245.0 mm^3 (Day 36); 269.2 mm^3 (Day 39); 296.3 mm^3 (Day 43); 279.7 mm^3 (Day 46). In addition, the mean tumor volumes (Day 49) came to 283.5 mm^3 and the mean tumor volumes (Day 53) was found to be 358.1 mm^3.

Values taken from patent US9518130B2, “Use of ERBB3 inhibitors in the treatment of triple negative and basal-like breast cancers” (Merrimack Pharmaceuticals, Inc., priority 2010, dated 2016).
